How the values were obtained:
[1] = system: cerebral cholinergic muscarinic receptor; format: binding, rat; conditions: ratio of IC50
site of TCP = test: Affinity for the TCP site, competition with (^3 H)TCP on rat brain homogenates; format: binding; conditions: rat brain homogenate, pH 7.7, 25° C., 1 nmole tritiated ligand; read-out: ^3 HTCP IC50
site of PCP = test: Affinity for the PCP site, competition with (^3 H)PCP on rat brain homogenates; format: binding; conditions: rat brain homogenate, pH 7.7, 25° C., 1 nmole tritiated ligand
receptor of the opiates = biological target: T1, receptor of the opiates (Rattus norvegicus, UniProt P33535); test: Competition test with ^3 H-DHM for the receptor of the opiates; format: binding; conditions: ratio of IC50
T1 construct: variable concentrations of the tested compound and a rat brain homogenate; from tissue; host or cells: rat brain homogenate
Description: In this test, a fixed concentration of ^3 H-DHM labelled morphine was incubated in the presence of variable concentrations of the tested compound and a rat brain homogenate. The concentration of the compound preventing the fixing of 50% of ^3 H-DHM (IC50) is a measure of the affinity of the compound for the receptor of the opiates. The latter also gives the results obtained with PCP and TCP, as well as the ratios H^3 DA/^3 H-TCP, ^3 HQNB/^3 H-TCP and ^3 HDHM/^3 HTCP obtained with the different tested compounds.

The chains behind the UniProt entries cited, without tags or fusion partners.
UniProt P33535, whole entry: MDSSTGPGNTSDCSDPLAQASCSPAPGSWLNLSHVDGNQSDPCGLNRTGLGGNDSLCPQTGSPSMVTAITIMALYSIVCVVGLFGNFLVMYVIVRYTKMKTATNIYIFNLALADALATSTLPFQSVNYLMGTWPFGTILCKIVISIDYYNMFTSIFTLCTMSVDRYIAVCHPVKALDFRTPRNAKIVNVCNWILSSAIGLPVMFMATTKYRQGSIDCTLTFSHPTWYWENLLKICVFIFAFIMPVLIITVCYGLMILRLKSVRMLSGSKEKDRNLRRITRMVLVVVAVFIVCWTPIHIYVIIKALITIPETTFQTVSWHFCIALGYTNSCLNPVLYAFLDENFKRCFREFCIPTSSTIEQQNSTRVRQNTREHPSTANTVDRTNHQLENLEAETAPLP

Structure (SMILES): C[C@@H]1CCCC[C@]1(c1cccs1)N1CCCCC1 (relative stereo) [compound 9, c-methyl-2-r-(piperidino-1)-1 (thienyl-2)-1 cyclohexane]
- ^3 HQNB/^3 HTCP [1]: 631
- IC50 (site of TCP): 19 nM
- IC50 (site of PCP): 40 nM
- ^3 HDHM/^3 HTCP (receptor of the opiates): 263

Source: US5179109A (priority 1988, dated 1993)
